The chains behind the UniProt entries cited, without tags or fusion partners.
UniProt Q15910, whole entry, looked up: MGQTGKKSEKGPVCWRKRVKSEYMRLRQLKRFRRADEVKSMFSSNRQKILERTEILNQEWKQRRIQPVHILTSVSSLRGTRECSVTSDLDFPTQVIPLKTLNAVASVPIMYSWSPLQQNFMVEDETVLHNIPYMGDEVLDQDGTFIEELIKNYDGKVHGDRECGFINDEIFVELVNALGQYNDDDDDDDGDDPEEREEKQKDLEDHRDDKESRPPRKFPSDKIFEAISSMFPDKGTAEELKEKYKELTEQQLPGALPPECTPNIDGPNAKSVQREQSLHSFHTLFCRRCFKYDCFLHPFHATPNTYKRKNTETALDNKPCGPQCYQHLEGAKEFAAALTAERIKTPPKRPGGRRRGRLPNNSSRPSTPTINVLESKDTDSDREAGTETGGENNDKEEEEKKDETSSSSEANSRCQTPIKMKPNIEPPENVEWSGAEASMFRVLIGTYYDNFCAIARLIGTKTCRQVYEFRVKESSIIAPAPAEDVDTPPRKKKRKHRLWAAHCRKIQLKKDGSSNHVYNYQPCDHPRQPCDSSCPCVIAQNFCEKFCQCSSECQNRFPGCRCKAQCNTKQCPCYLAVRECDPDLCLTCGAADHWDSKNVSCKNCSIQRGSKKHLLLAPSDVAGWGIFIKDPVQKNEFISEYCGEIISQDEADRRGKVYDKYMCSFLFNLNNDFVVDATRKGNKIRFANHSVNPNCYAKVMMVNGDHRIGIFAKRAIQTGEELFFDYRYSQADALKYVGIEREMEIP

In ChEMBL document CHEMBL5705896 (ACS Chem Biol, 2013):

Tests used:
[1] = target: T1, Histone-lysine N-methyltransferase EZH2 (Homo sapiens, UniProt Q15910); conditions: dose <= 5.0 nM
[2] = target: T1, Histone-lysine N-methyltransferase EZH2; conditions: dose <= 5.0 nM; remark: listed apart in the source
[3] = target: T1, Histone-lysine N-methyltransferase EZH2; conditions: dose <= 5.0 nM; remark: listed apart in the source
[4] = target: T1, Histone-lysine N-methyltransferase EZH2; conditions: MCF7, dose 5000.0 nM, time 72.0 hrs

CCCc1cc(C)[nH]c(=O)c1CNC(=O)c1cc(-c2ccc(N3CCN(C(C)C)CC3)nc2)cc2c1cnn2C(C)C
inhibition [1]: inactive
inhibition [2]: inactive
inhibition [3]: Active
inhibition [4]: 100%

Activity calls are given as the source filed them. The rule behind the calls is not given here.
